Results: PubChem BioAssay AID493232 (The Scripps Research Institute Molecular Screening Center, 2011)
This is a selection; strong and weak results do not stand in their true shares. Calls of active or inactive are those of the source. Rule as the data show it: active = inhibition above about 17%; inactive = the rest.

Assay: CHO-K1 parental line HTRF response – cell-based, counter-screen for OX1R antagonist project (AID 493232);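 also: 0% = agonist challenge with vehicle and 100% = vehicle alone without agonist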
Conditions: parental CHO-K1 cells, HTRF counterscreen; at 6.6 µM; hits give high values

SMILES | inhibition
Cc1ccc(NCCc2c([N+](=O)[O-])cc([N+](=O)[O-])cc2[N+](=O)[O-])cc1 | active: 32%
O=[N+]([O-])c1cccc2n[nH]nc12 | active: 32%
